PDI turbidity = inhibitors of human protein disulfide isomerase; P07237; PDI insulin aggregation turbidity, A650, 90 min; inhibition, % at 10 µM; hit rate 0.052% among 350,000;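 active = mean inhibition across replicates of 30% or more, whatever share of single replicates reach that level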
SIRT5 block = inhibitors of human sirtuin-5 desuccinylase; Q9NXA8; Purified SirT5, succinyl-peptide AMC, trypsin-coupled fluorescence; inhibition, % at 15 µM; hit rate 1.1% among 330,000; in the data active = inhibition above about 15%
S100A4 MyoIIA = inhibitors of human S100A4 binding to myosin IIA peptide. S100A4/TAMRA-MyoIIA peptide fluorescence polarization. inhibition, % at 10.7 µM. hit rate 0.14% among 360,000;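 active = mean inhibition of at least 70% across replicates, with every replicate also reaching that level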
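assay system = human S100A4 monomer with TAMRA-labelled myosin IIA peptide | also added = labelled myosin peptide probe, 5 nM | incubation = 5 min between mix addition and reading | control set = DMSO and TFP controls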
Yeast UUG start = alters start codon recognition fidelity in yeast | S. cerevisiae UUG-firefly luciferase reporter, luminescence/redox ratio | activity score, % at 18.7 µM | hit rate 0.13% among 350,000 | AID 602363;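 active means replicate mean at a twofold rise or more, about +100% in these data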;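 further: firefly luciferase made from a UUG start codon reports start codon fidelity; reporter light over untreated wells divided by growth signal over untreated wells; some hits fall short of that in this replicate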
ERp5 inh = inhibitors of human ERp5; ERp5 insulin aggregation, absorbance 650 nm, 90 min; inhibition, % at 9.99 µM; Q15084; AID 651711; hit rate 0.05% among 350,000;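 active = mean replicate inhibition above about 25%, with every replicate also reaching it, limit read from the data, passing the limit was not always enough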
FGF22 binding = FGF22 (human) thermal shift binding; hit rate 1.5% among 340,000; recombinant FGF22 thermal shift, SYPRO orange fluorescence; percent of sucrose octasulfate shift, DMSO zero; activity (Tm shift, normalised), % at 9.99 µM; Q9HCT0; AID 651658;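 active = mean Tm shift, scaled 0 neutral to 100 positive control, at about 1.3% or above, every replicate too, limit read from the data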
* hit, by the source's call; . = no result. An excerpt weighted towards active compounds, which were near 2.2% of everything screened.

Order of results – PDI turbidity, SIRT5 block, S100A4 MyoIIA, Yeast UUG start, ERp5 inh, FGF22 binding
CC1(C)CC(NC(=O)c2sc3cc(Cl)ccc3c2Cl)CC(C)(C)N1
→ 17.3, -2.1, 4.7, ., 8.2, 43.4*
COc1ccc(Cc2noc(CN3CCN(Cc4cccc(Cl)c4)CC3)n2)cc1OC
→ -8.7, 1.3, 0.6, ., -1.2, 43.7*
OC[C@H]1[C@H](c2ccc(Br)cc2)[C@H]2CN(Cc3cncnc3)CCCCN21
→ ., -1.9, 8.1, -8.6, 1.8, -0.3
CSc1ccccc1C(=O)N1CCCCC1
→ 3.9, 20.0*, -5.3, ., 1.2, 0.1
CCn1ncc(Br)c1C(=O)Nc1ccccc1OC
→ -0.5, -1.2, 1.6, ., -2.8, 44.0*
Cc1cc([N+](=O)[O-])ccc1NC(=O)C[n+]1ccc(N(C)C)cc1
→ 0.9, -0.2, -4.4, ., 0.7, 43.3*
Cc1ccc(-c2nc(C)c(C(=O)O)s2)cc1
→ -0.2, 2.7, 2.8, ., -0.6, 43.4*
Cc1nc(-c2ccccc2)sc1C(=O)O
→ 1.2, -2.5, 3.1, ., 1.1, 0.2
CC(=O)N[C@H]1C=C[C@H](CC(=O)NCC2CCCCC2)O[C@@H]1CO
→ ., -3.3, 9.6, -19.6, 1.0, 0.1
Cc1ccc(C(=O)NCCN2C3=NC[C@H](Cc4ccc(O)cc4)N3C[C@H]2Cc2ccc(O)cc2)cc1Br
→ 39.7*, ., -0.2, -3.1, 0.8, -0.4
C[C@@H](CN1C2=NC[C@H](Cc3ccccc3)N2C[C@H]1Cc1ccc(O)cc1)NC(=O)CCC1CCCCC1
→ 13.8, -0.5, -1.0, 2.4, 4.2, 0.0
C[C@@H](CN1C2=NC[C@H](Cc3ccc(O)cc3)N2C[C@H]1Cc1ccc(O)cc1)NC(=O)CCC1CCCCC1
→ 47.4*, ., -2.1, 6.3, -1.4, 0.0
COc1ccc(CCNC(=O)[C@H](C)NC(=O)N2CCn3c2nc2ccccc23)cc1OC
→ 1.9, 29.5*, 3.2, -16.5, 9.4, -0.2
C[C@@H]1CN([C@@H](C)CO)C(=O)Cc2cc(NC(=O)Cc3ccccc3)ccc2O[C@H]1CN(C)Cc1ccncc1
→ ., 2.3, 0.2, 26.4, 3.5, -0.1
O=c1[nH][nH]c2c(N=Cc3ccccc3O)ccc(F)c12
→ -4.9, 29.4*, -0.2, -10.9, 2.1, .
CCN(c1ccccc1)S(=O)(=O)c1ccc(OC)c(NC(=O)c2c(C)noc2C)c1
→ 1.5, -2.8, 1.7, -4.3, 27.4*, -0.3
Cc1ccc(SCC(=O)NNC(=O)c2ccccc2)cc1C
→ -5.6, 2.4, 0.4, -3.4, 2.8, -0.3
Cc1ccc(SCCN)cc1C
→ 8.0, -2.1, -6.2, ., -7.7, 43.4*
COc1cc(C(=O)O/N=C2\C=CC(=O)C=C2C)cc(OC)c1OC
→ -1.7, -0.4, -1.2, ., -7.3, 43.2*
O=C(C[C@H]1CC[C@@H]2[C@H](COC[C@@H](O)CN2Cc2ccccc2F)O1)NC1CCC1
→ ., ., ., ., ., -0.3
CCOC(=O)N1CCN(C(=O)C2CCN(S(=O)(=O)c3cc(OC)ccc3OC)CC2)CC1
→ -3.8, 8.5, 2.8, ., -3.3, 43.0*
COc1ccccc1C1=NC(c2ccc(C)cc2)N=C1C (stereo not drawn)
→ 15.0, -5.5, 1.5, ., -2.9, 43.7*
COc1ccccc1-c1nnc(-c2ccc(C)cc2)o1
→ 21.1, -1.9, -3.9, -20.6, 0.7, -0.2
Cc1ccc(CC(=O)Nc2ccncc2)cc1
→ -0.5, 0.1, 3.2, -3.6, -1.4, 43.6*
O=C(C[C@H]1CC[C@H]2[C@@H](COC[C@@H](O)CN2S(=O)(=O)c2ccc(Oc3ccccc3)cc2)O1)NC1CCC1
→ ., 4.7, -12.1, ., 0.4, -0.5
Cc1ccc(C(=O)N/C(=C\c2ccc3c(c2)OCO3)C(=O)Nc2ccc(C(=O)O)cc2)cc1
→ 11.1, 4.1, -0.7, ., 3.6, 43.0*
Nc1nc(SCCO)[nH]c(=O)c1NC(=O)c1ccccc1F
→ 9.8, -0.2, 24.9, -7.5, -1.8, 43.6*
COc1ccc(-c2cc(=O)oc3cc(OC(C)C(=O)NCc4ccccn4)ccc23)cc1 (stereo not drawn)
→ ., ., -1.6, -24.5, -4.7, 48.8*
COc1ccc(-c2cc(=O)oc3cc(OCC(=O)NCc4ccccn4)ccc23)cc1
→ ., ., -2.7, -20.9, -0.1, 0.1
N/C(=N\OC(=O)/C=C/c1ccccc1)c1cccnc1
→ 4.9, -1.6, 1.1, ., -0.5, 43.2*

As entered above:
Value of Cc1ccc(SCC(=O)NNC(=O)c2ccccc2)cc1C in FGF22 binding: -0.3
Value of Cc1nc(-c2ccccc2)sc1C(=O)O in SIRT5 block: -2.5

Additional records
Order of results – PDI turbidity, SIRT5 block, S100A4 MyoIIA, Yeast UUG start, ERp5 inh, FGF22 binding
CCC(=O)c1cn(CC(=O)Nc2cccc(C)c2C)c2ccccc12
→ -0.4, -4.5, 0.0, -26.0, 0.8, -0.2
CC(=O)c1cn(CC(=O)Nc2cccc(C)c2C)c2ccccc12
→ 3.0, 22.0*, -1.1, 6.8, 3.2, 42.2
O=C(C[C@H]1C=C[C@H](NC(=O)c2ccncc2)[C@@H](CO)O1)NCc1ccncn1
→ ., -2.2, 1.8, ., -0.4, .
COCC(=O)N1CC2(C1)[C@H](c1ccccc1)[C@H](CO)N2C(=O)c1ccccc1
→ ., 1.6, 6.2, ., -1.3, -0.2
O=C1CN(C(=O)CSc2nc(-c3ccc(Cl)cc3)cs2)c2ccccc2N1
→ -7.3, 15.0*, 0.7, -15.6, 2.4, -0.2
O=C(NC[C@@H]1CC[C@@H]2[C@@H](CN2Cc2cc(-c3ccccc3)on2)O1)c1ccc2c(c1)OCO2
→ ., -3.7, 3.3, ., 8.1, .
Nc1ccc(C(CC(=O)O)n2cccc2)cc1 (stereo not drawn)
→ 2.0, 21.0*, -8.8, -3.5, -2.5, 0.7
CN(C[C@@H]1N[C@H](CO)[C@@H]1c1ccc(C2=CCCC2)cc1)S(C)(=O)=O
→ ., 15.5*, -1.2, 1.0, -5.8, -0.5
O=C(C[C@H]1CC[C@@H]2[C@H](COC[C@H](O)CN2S(=O)(=O)c2ccccc2)O1)NCCN1CCCC1
→ ., 2.9, 20.6, ., 6.8, .
CNC[C@@H]1Oc2cc(C#Cc3ccccn3)ccc2S(=O)(=O)N([C@H](C)CO)C[C@H]1C
→ ., 2.0, 20.8, 11.0, -3.2, -0.2
CCOc1ccc(N2CC(O)=C(c3nc4ccccc4c(=O)[nH]3)C2=N)cc1
→ -8.1, ., 1.0, ., -2.7, 0.6
Cc1ccc(N2CC(O)=C(c3nc4ccccc4c(=O)[nH]3)C2=N)cc1C
→ -5.6, -1.4, -4.2, ., 1.5, 43.0*
CC(C)N(Cc1ccccc1)C(=S)Nc1ccc(F)cc1
→ 2.8, -1.8, -0.2, ., -0.8, 43.3*
CCC(=O)Nc1cccc(-c2cc3ccccc3oc2=O)c1
→ 1.8, 28.0*, -2.1, ., -0.5, -0.4
COc1ccc(/[N+]([O-])=C/c2ccoc2)cc1
→ -2.2, 1.4, 0.6, -36.0, -1.0, 45.1*
Nc1ccccc1SC(CC(=O)c1ccccc1)c1ccc([N+](=O)[O-])cc1 (stereo not drawn)
→ -0.3, 0.1, 0.6, -22.0, 2.7, -0.1
Nc1ccccc1SC(CC(=O)c1ccccc1)c1cccc([N+](=O)[O-])c1 (stereo not drawn)
→ 56.4*, -0.5, -2.4, -31.2, 5.0, -0.1
Cc1cc2c(OCC(O)CNC(C)(C)C)cccc2[nH]1 (stereo not drawn)
→ 4.3, ., ., -13.0, ., .
COCCCNCC(O)COc1cccc2[nH]c(C)cc12 (stereo not drawn)
→ -7.8, -0.8, -1.1, ., -2.7, 1.4*

Some of these compounds in order of the PDI turbidity value, descending.
structure,PDI turbidity,SIRT5 block,S100A4 MyoIIA,Yeast UUG start,ERp5 inh
Nc1ccccc1SC(CC(=O)c1ccccc1)c1cccc([N+](=O)[O-])c1 (stereo not drawn),56.4*,-0.5,-2.4,-31.2,5.0
CC(=O)c1cn(CC(=O)Nc2cccc(C)c2C)c2ccccc12,3.0,22.0*,-1.1,6.8,3.2
Nc1ccc(C(CC(=O)O)n2cccc2)cc1 (stereo not drawn),2.0,21.0*,-8.8,-3.5,-2.5
Nc1ccccc1SC(CC(=O)c1ccccc1)c1ccc([N+](=O)[O-])cc1 (stereo not drawn),-0.3,0.1,0.6,-22.0,2.7

Compound activity (PubChem)
